Test results published in US10874626B2, “Formulation for use in a method of treatment of pain” (NEVAKAR Inc., priority 2016, dated 2020).

Experiment: pH dependent solubility studies (pH 4.0-8.0)
Type: physicochemical
Details: APAP alone, overall pH range 4.0-8.0

pH dependence of solubility of APAP: no significant difference in solubility
SMILES: CC(=O)Nc1ccc(O)cc1 [Acetaminophen, acetaminophen]
